# Read-outs that look alike come from different tables or passages of the source.
# Assays:
# nude mice = assay: Acute toxicity dose limiting experiments (LD50)
# Procedure: The LD50 of the pharmaceutical composition of the invention is tested as follows, for example: […]
# cancer = assay: Typical cases treated by oral capsules and injections; format: in vivo, human
# Procedure: 1. The oral capsules were composed of bicycloplatin and adjuvant. The patients took the oral capsules containing 20-30 mg of bicycloplatin.
# 2. Injections of bicycloplatin water solution at the concentration of 1% in 5 ml per ampoule. Bicycloplatin water solution was dissolved in 100 ml injection containing 5% of glucose and 0.9% of sodium chloride and injected intravenously once every two days, two ampoules every time. 100 ml of sodium chloride injection should be transfused after the dripping of bicycloplatin. A course of treatment took 6 times (12 ampoules). The second course of treatment began after an interval of two weeks. After three consecutive courses of treatment, general examination was taken.
# Solubility in water = format: physicochemical
# Stability in water = format: physicochemical; conditions: after dissolved in water
# [1] = for content of platinum in serum: 100 mg iv
# [2] = rabbits intravenous, mice oral
# [3] = test system: human normal fibrous cells; conditions: within a certain range of doses
# epidermal cells = conditions: within a certain range of doses
substance,measurement,setting,value
"double 1,1-cyclobutane dicarboxylic acid diaminoplatin complex [bicycloplatin]",LD50 abdominal administration,nude mice; administered abdominally,283 mg/kg
same,LD50 intravenous,nude mice; administered intravenously,50.46 ± 0.93 mg/kg
same,LD50 oral administration,nude mice; taken orally,500 mg/kg
same,side effects,cancer; Patient Li,periodic fever lasting about 10 hours
same,hemogram,"cancer; Patient Li, 3rd course of treatment",Changes were little in hemogram
same,hemogram,"cancer; Patient Ma, after five courses of treatment",Changes were little in hemogram
same,hemoglobin,"cancer; Patient Xu, at discharge",8.0 g
same,number of WBC,"cancer; Patient Xu, at discharge",3000
same,Solubility in water,Solubility in water,4.0 g/100 ml
same,stability in water,Stability in water,can be stored effective for a long period
same,content of platinum in serum,"[1]; Rabbit 1 (3.25 kg), 0 hr",34.6 µg/mL
same,content of platinum in serum,"[1]; Rabbit 1 (3.25 kg), 0.5 hr",20.5 µg/mL
same,content of platinum in serum,"[1]; Rabbit 1 (3.25 kg), 1 hr",10.4 µg/mL
same,content of platinum in serum,"[1]; Rabbit 1 (3.25 kg), 2 hr",6.2 µg/mL
same,content of platinum in serum,"[1]; Rabbit 1 (3.25 kg), 4 hr",2.4 µg/mL
same,content of platinum in serum,"[1]; Rabbit 1 (3.25 kg), 6 hr",1.9 µg/mL
same,content of platinum in serum,"[1]; Rabbit 1 (3.25 kg), 8 hr",1.7 µg/mL
same,content of platinum in serum,"[1]; Rabbit 1 (3.25 kg), 10 hr",1.6 µg/mL
same,content of platinum in serum,"[1]; Rabbit 1 (3.25 kg), 12 hr",0.9 µg/mL
same,content of platinum in serum,"[1]; Rabbit 1 (3.25 kg), 24 hr",0 µg/mL
same,content of platinum in serum,"[1]; Rabbit 2 (3.5 kg), 0 hr",58.0 µg/mL
same,content of platinum in serum,"[1]; Rabbit 2 (3.5 kg), 0.5 hr",21.8 µg/mL
same,content of platinum in serum,"[1]; Rabbit 2 (3.5 kg), 1 hr",20.3 µg/mL
same,content of platinum in serum,"[1]; Rabbit 2 (3.5 kg), 2 hr",10.8 µg/mL
same,content of platinum in serum,"[1]; Rabbit 2 (3.5 kg), 4 hr",4.2 µg/mL
same,content of platinum in serum,"[1]; Rabbit 2 (3.5 kg), 6 hr",2.8 µg/mL
same,content of platinum in serum,"[1]; Rabbit 2 (3.5 kg), 8 hr",2.3 µg/mL
same,content of platinum in serum,"[1]; Rabbit 2 (3.5 kg), 10 hr",2.1 µg/mL
same,content of platinum in serum,"[1]; Rabbit 2 (3.5 kg), 12 hr",2.2 µg/mL
same,content of platinum in serum,"[1]; Rabbit 2 (3.5 kg), 24 hr",0 µg/mL
same,time at which concentration dropped to zero,"[1]; rabbits, 100 mg intravenously",24 h
same,time at which concentration dropped to zero in blood,[2],24 h
same,injury to human normal fibrous cells,[3],no injury occurred
same,injury to human normal epidermal cells,epidermal cells,no injury occurred

# From patent US6699901B1, “Dicarboxylato diammine platinum derivatives and compositions comprising them as anti-tumor agents” (priority 2000, dated 2004)
